Sequences of proteins named here, by UniProt entry; tags and fusion partners are left off. Residues count along the entry.
UniProt Q786F3, 113-550: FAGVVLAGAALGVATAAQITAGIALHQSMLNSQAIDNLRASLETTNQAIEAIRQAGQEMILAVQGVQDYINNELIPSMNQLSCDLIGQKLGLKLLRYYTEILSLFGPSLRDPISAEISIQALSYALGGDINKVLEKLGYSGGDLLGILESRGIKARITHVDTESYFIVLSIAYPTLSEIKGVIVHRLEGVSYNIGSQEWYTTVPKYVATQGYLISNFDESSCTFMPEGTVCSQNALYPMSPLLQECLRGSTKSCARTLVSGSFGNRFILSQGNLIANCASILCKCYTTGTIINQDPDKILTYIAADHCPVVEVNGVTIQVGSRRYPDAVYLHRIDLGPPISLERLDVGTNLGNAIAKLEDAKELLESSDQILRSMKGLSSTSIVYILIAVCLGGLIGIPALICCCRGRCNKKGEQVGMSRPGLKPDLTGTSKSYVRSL
UniProt Q786F3, 24-112: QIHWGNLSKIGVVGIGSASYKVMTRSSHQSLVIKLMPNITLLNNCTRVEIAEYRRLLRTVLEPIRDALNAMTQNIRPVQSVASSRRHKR

In PMC9616412, “Nebulized fusion inhibitory peptide protects cynomolgus macaques from measles virus infection” (Nature Communications, 2022):

Target: MeV F (IC323 H and F), wild-type (Measles virus, UniProt Q786F3)
Assay: β-gal complementation cell-cell fusion assay, wild-type F
Conditions: 5 µM, β-galactosidase complementation

Compound: CC[C@H](C)[C@H](NC(=O)[C@H](C)NC(=O)[C@H](CC(N)=O)NC(=O)CNC(=O)[C@H](CC(C)C)NC(=O)[C@H](CC(N)=O)NC(=O)[C@@H](NC(=O)CNC(=O)[C@@H](NC(=O)[C@H](CC(=O)O)NC(=O)[C@H](CC(C)C)NC(=O)[C@H](CCCNC(=N)N)NC(=O)[C@H](CCC(=O)O)NC(=O)[C@H](CC(C)C)NC(=O)[C@H](CO)NC(=O)[C@@H](NC(=O)[C@@H]1CCCN1C(=O)[C@@H]1CCCN1)[C@@H](C)CC)C(C)C)[C@@H](C)O)C(=O)N[C@@H](C)C(=O)N[C@@H](CCCCN)C(=O)N[C@@H](CC(C)C)C(=O)N[C@@H](CCC(=O)O)C(=O)N[C@@H](CC(=O)O)C(=O)N[C@@H](C)C(=O)N[C@@H](CCCCN)C(=O)N[C@@H](CCC(=O)O)C(=O)N[C@@H](CC(C)C)C(=O)N[C@@H](CC(C)C)C(=O)N[C@@H](CCC(=O)O)C(=O)N[C@@H](CO)C(=O)N[C@@H](CO)C(=O)N[C@@H](CC(=O)O)C(=O)N[C@@H](CCC(N)=O)C(=O)N[C@H](C(=O)N[C@@H](CC(C)C)C(=O)N[C@@H](CCCNC(=N)N)C(=O)NCC(=O)N[C@@H](CO)C(=O)NCC(=O)N[C@@H](CO)C(=O)NCC(=O)N[C@@H](CSC1CC(=O)N(CCCC(=O)NCCOCCOCCOCCOCCC(=O)NCCN(CCNC(=O)CCOCCOCCOCCOCCNC(=O)CCCN2C(=O)CC(SC[C@H](NC(=O)CNC(=O)[C@H](CO)NC(=O)CNC(=O)[C@H](CO)NC(=O)CNC(=O)[C@H](CCCNC(=N)N)NC(=O)[C@H](CC(C)C)NC(=O)[C@@H](NC(=O)[C@H](CCC(N)=O)NC(=O)[C@H](CC(=O)O)NC(=O)[C@H](CO)NC(=O)[C@H](CO)NC(=O)[C@H](CCC(=O)O)NC(=O)[C@H](CC(C)C)NC(=O)[C@H](CC(C)C)NC(=O)[C@H](CCC(=O)O)NC(=O)[C@H](CCCCN)NC(=O)[C@H](C)NC(=O)[C@H](CC(=O)O)NC(=O)[C@H](CCC(=O)O)NC(=O)[C@H](CC(C)C)NC(=O)[C@H](CCCCN)NC(=O)[C@H](C)NC(=O)[C@@H](NC(=O)[C@H](C)NC(=O)[C@H](CC(N)=O)NC(=O)CNC(=O)[C@H](CC(C)C)NC(=O)[C@H](CC(N)=O)NC(=O)[C@@H](NC(=O)CNC(=O)[C@@H](NC(=O)[C@H](CC(=O)O)NC(=O)[C@H](CC(C)C)NC(=O)[C@H](CCCNC(=N)N)NC(=O)[C@H](CCC(=O)O)NC(=O)[C@H](CC(C)C)NC(=O)[C@H](CO)NC(=O)[C@@H](NC(=O)[C@@H]3CCCN3C(=O)[C@@H]3CCCN3)[C@@H](C)CC)C(C)C)[C@@H](C)O)[C@@H](C)CC)[C@@H](C)CC)C(=O)O)C2=O)CCO[C@H]2CC[C@@]3(C)C(=CC[C@H]4[C@@H]5CC[C@H]([C@H](C)CCCC(C)C)[C@@]5(C)CC[C@@H]43)C2)C1=O)C(=O)O)[C@@H](C)CC (stereo partly shown) [HRC4]
- Effect on membrane fusion mediated by wild-type F: inhibited membrane fusion
